Screening data deposited in PubChem BioAssay by several laboratories.
ABCB6 inh 2: blocks the human ABCB6 transporter; Q9NP58; K562-ABCB6 porphyrin accumulation, flow cytometry, 1 h; stronger effect = lower value; fluorescence ratio to DMSO, % at 10 µM; actives 0.19% (n = 360,000);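 active = fluorescence ratio to DMSO below 75%, the collection mean minus 3 SD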;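 note: signal is porphyrin accumulated inside mitochondria; 100% equals median channel fluorescence of DMSO control wells; lower ratio means ABCB6 inhibition with less porphyrin fluorescence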
Granule exo inh: blocks lytic granule exocytosis; AID 651702; TALL-104 LAMP-1 surface exposure, flow cytometry; cells stimulated with thapsigargin and PMA; inhibition, % at 10 µM; actives 0.66% (n = 360,000);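 active = inhibition above about 55%, limit read from the data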
PKA-R1A act: activates the PKA-R1A holoenzyme complex; AID 504707; actives 0.083% (n = 340,000); P00514+P68181; PKA-R1A dissociation, Cy5-IP20 fluorescence polarization; scaled: DMSO 0%, 113 µM cGMP 100%; activation, % at 11.4 µM;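 active = percent activation above the mean of all tested compounds plus 3 SD, cut at about 19% in these data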;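 note: higher means more PKAc released from R1A so a rise in polarization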
Yeast UUG start: modulators of start codon recognition fidelity in yeast. S. cerevisiae UUG-firefly luciferase reporter, luminescence/redox ratio. activity score, % at 18.7 µM. 350,000 tested, 0.13% active;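 active = replicate mean at a twofold rise or more, about +100% in these data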;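 note: firefly luciferase made from a UUG start codon reports start codon fidelity; reporter light over untreated wells divided by growth signal over untreated wells; some hits fall short of that in this replicate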
PKA-R2B act: PKA-R2B complex activation | AID 504700 | PKA-R2B holoenzyme dissociation, Cy5-IP20 fluorescence polarization; R2B truncated from residue 108, S112A mutant; 0% DMSO only, 100% 113 µM cGMP | actives 0.079% (n = 340,000) | activation, % at 11.4 µM | P22694+P31323;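 active = activation above a cutoff set at the mean over all compounds plus 3 SD, cut at about 18% in these data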;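 note: higher means more holoenzyme dissociation and a rise in polarization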
pCIP destab: compounds decreasing mouse p/CIP protein stability; Q05BA5; F442A p/CIP-EGFP cells, EGFP fluorescence, 16 h; AID 1984; decrease of EGFP signal, % at 10 µM; actives 0.01% (n = 290,000);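 active = EGFP signal decrease of at least 30% at 10 µM or well 3 SD below plate mean, unless failing retest; inactive = the rest, including hits failing retest or dose response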
Active calls of the source: *. This is a sample that favours compounds with a hit; in the whole collection about 0.94% have one here.

Results for Nc1sc(-c2ccccc2)cc1-c1n[nH]c(=S)n1C1CCCCC1 ?
ABCB6 inh 2: 96.0; Granule exo inh: 17.6; Yeast UUG start: -14.1; pCIP destab: -6.3

Results for COc1ccc(-n2c(-c3cc(-c4ccccc4)sc3N)n[nH]c2=S)cc1 ?
ABCB6 inh 2: 99.0; Granule exo inh: 90.9*; PKA-R1A act: -8.8; PKA-R2B act: -14.4; pCIP destab: -9.8

What do the screens show for `NC(=S)N/N=C1\CCSc2ccc(Cl)cc21`?
ABCB6 inh 2: 104.0; Granule exo inh: 73.2*; Yeast UUG start: -6.9; pCIP destab: 6.0

What do the screens show for `C[C@@H]1CN([C@H](C)CO)C(=O)c2cc(NC(=O)Nc3cccc4ccccc34)ccc2O[C@@H](C)CCCCO[C@@H]1CN(C)CC1CCCCC1`?
Yeast UUG start: 9.0

What do the screens show for `COc1cccc(OCC(=O)Nc2ccccc2-c2ccccc2)c1`?
ABCB6 inh 2: 100.0; Granule exo inh: 2.4; pCIP destab: -20.8

How did COc1cccc(OCC(=O)NN=C2c3ccccc3-c3ccccc32)c1 do in these assays?
ABCB6 inh 2: 44.0*; Granule exo inh: -2.4; PKA-R1A act: 7.9; Yeast UUG start: 15.4; PKA-R2B act: -10.3; pCIP destab: -8.8

How did Cn1nc([N+](=O)[O-])c(C(C#N)c2nc3ccccc3n2C)c(Cl)c1=O (stereo not drawn) do in these assays?
ABCB6 inh 2: 102.0; Granule exo inh: 71.3*; PKA-R1A act: 3.6; PKA-R2B act: -1.3; pCIP destab: -11.4

What do the screens show for `Cn1c(-c2ccc([N+](=O)[O-])cc2)nc2ccccc21`?
ABCB6 inh 2: 90.0; Granule exo inh: 3.1; PKA-R1A act: -2.0; Yeast UUG start: -10.9; PKA-R2B act: -2.8; pCIP destab: 6.2

What do the screens show for `COc1cccc(CNC(=O)N[C@@H](CC(C)C)C(=O)O)c1`?
ABCB6 inh 2: 63.0*; Granule exo inh: -2.0; PKA-R1A act: -6.2; Yeast UUG start: -13.4; PKA-R2B act: -0.2; pCIP destab: -1.9

Results for CCC(C)[C@H](NC(=O)NCc1cccc(OC)c1)C(=O)OC (stereo partly drawn) ?
ABCB6 inh 2: 96.0; Granule exo inh: 0.1; PKA-R1A act: -3.7; Yeast UUG start: -9.5; PKA-R2B act: -8.6; pCIP destab: -16.0

What do the screens show for `O=C(NCCc1ccncc1)[C@H]1[C@H](CO)[C@H]2Cn3c(ccc(-c4ccccc4)c3=O)[C@@H]1N2`?
Yeast UUG start: -12.5

How did C[C@H]1CN([C@@H](C)CO)S(=O)(=O)c2ccc(-c3cccnc3)cc2O[C@@H]1CN(C)C(=O)CN(C)C do in these assays?
Yeast UUG start: 18.5

3 successive entries from above, for reference:
How did COc1cccc(OCC(=O)NN=C2c3ccccc3-c3ccccc32)c1 do in these assays?
ABCB6 inh 2: 44.0*; Granule exo inh: -2.4; PKA-R1A act: 7.9; Yeast UUG start: 15.4; PKA-R2B act: -10.3; pCIP destab: -8.8

How did Cn1nc([N+](=O)[O-])c(C(C#N)c2nc3ccccc3n2C)c(Cl)c1=O (stereo not drawn) do in these assays?
ABCB6 inh 2: 102.0; Granule exo inh: 71.3*; PKA-R1A act: 3.6; PKA-R2B act: -1.3; pCIP destab: -11.4

What do the screens show for `Cn1c(-c2ccc([N+](=O)[O-])cc2)nc2ccccc21`?
ABCB6 inh 2: 90.0; Granule exo inh: 3.1; PKA-R1A act: -2.0; Yeast UUG start: -10.9; PKA-R2B act: -2.8; pCIP destab: 6.2

Later entries:
Results for CC1=NNC(=O)/C1=C\c1cn(-c2ccccc2)nc1-c1ccc(F)cc1 ?
ABCB6 inh 2: 92.0; Granule exo inh: 65.5*; PKA-R1A act: -10.2; Yeast UUG start: -12.5; PKA-R2B act: -4.5; pCIP destab: -15.6

Results for Nc1c(Cl)cc(C2=NCCn3c2c2ccc([N+](=O)[O-])cc2[n+]3[O-])cc1Cl ?
ABCB6 inh 2: 109.0; Granule exo inh: 82.2*; PKA-R1A act: 9.3; Yeast UUG start: 32.7; PKA-R2B act: 10.3

What do the screens show for `Nc1c(Cl)cc(C2=NCCn3nc4cc([N+](=O)[O-])ccc4c32)cc1Cl`?
ABCB6 inh 2: 99.0; Granule exo inh: 24.0; PKA-R1A act: -1.1; Yeast UUG start: -13.5; PKA-R2B act: -2.8

What do the screens show for `COC(=O)c1c(NC(=S)NN2CCN(C)CC2)sc2c1CCC(C)C2` (stereo not drawn)?
ABCB6 inh 2: 88.0; Granule exo inh: 64.0*; PKA-R1A act: -9.6; PKA-R2B act: -18.1; pCIP destab: 4.2

Results for Cc1cc(NC(=S)N(CCN2CCCCC2)Cc2ccco2)ccc1Cl ?
ABCB6 inh 2: 92.0; Granule exo inh: 4.5; PKA-R1A act: 9.7; Yeast UUG start: -25.2; PKA-R2B act: 6.0; pCIP destab: 2.3

Results for Cc1ccc(NC(=S)N(CCCN2CCCC2)Cc2cccn2Cc2ccc(Cl)cc2)cc1Cl ?
ABCB6 inh 2: 92.0; Granule exo inh: 65.4*; PKA-R1A act: -0.8; Yeast UUG start: -29.7; PKA-R2B act: 1.1; pCIP destab: -4.5

What do the screens show for `Cc1ccc(NC(=S)N(CCCN2CCCC2)Cc2cccn2Cc2ccc(Cl)cc2)cc1C`?
ABCB6 inh 2: 95.0; Granule exo inh: 80.6*; PKA-R1A act: 2.7; Yeast UUG start: -22.6; PKA-R2B act: -5.7; pCIP destab: -7.1

Results for Cc1ccc(S(=O)(=O)N(C)C[C@@H]2Oc3c(NC(=O)Nc4ccccc4)cccc3C(=O)N([C@H](C)CO)C[C@@H]2C)cc1 ?
Yeast UUG start: -5.2

Results for O=C1/C(=C/c2ccncc2)SC(=S)N1Nc1ccccc1 ?
ABCB6 inh 2: 99.0; Granule exo inh: 61.1*; Yeast UUG start: -23.5; pCIP destab: -12.9

Results for C[C@@H]1CN([C@H](C)CO)C(=O)c2cccc(NS(=O)(=O)c3cccs3)c2O[C@H]1CN(C)S(=O)(=O)c1ccc(F)cc1 ?
Yeast UUG start: -0.1

How did O=[N+]([O-])c1cc([N+](=O)[O-])c(Oc2c(F)cccc2F)cc1NN1CCCCC1 do in these assays?
ABCB6 inh 2: 100.0; Granule exo inh: 77.8*; PKA-R1A act: -4.2; Yeast UUG start: -0.1; PKA-R2B act: 5.4; pCIP destab: -3.0

What do the screens show for `O=C(/C(=C/c1cccnc1)n1ccnc1)c1ccc(Cl)cc1Cl`?
ABCB6 inh 2: 95.0; Granule exo inh: 95.6*; PKA-R1A act: -0.6; PKA-R2B act: 0.9; pCIP destab: -5.4

What do the screens show for `COc1ccc(C(=O)c2coc3c2C(=O)C(=O)c2ccccc2-3)cc1`?
ABCB6 inh 2: 98.0; Granule exo inh: 97.9*; PKA-R1A act: 4.0; Yeast UUG start: -19.5; PKA-R2B act: -0.6; pCIP destab: 3.9

What do the screens show for `O=C(c1ccccc1)c1coc2c1C(=O)c1ccccc1C2=O`?
ABCB6 inh 2: 105.0; Granule exo inh: 14.3; PKA-R1A act: -0.3; PKA-R2B act: 1.1; pCIP destab: 0.4

How did N#Cc1ccc(CSc2nnc(-c3c[nH]c4ccccc34)n2-c2ccccc2)cc1 do in these assays?
ABCB6 inh 2: 105.0; Granule exo inh: 96.0*; PKA-R1A act: 0.7; PKA-R2B act: 3.6; pCIP destab: -7.8

What do the screens show for `C[N+](C)=C1SCC(C)(/C=N/O)S1` (stereo not drawn)?
ABCB6 inh 2: 95.0; Granule exo inh: 107.5*; PKA-R1A act: 10.2; PKA-R2B act: -4.8; pCIP destab: -6.2

How did CO[C@H]1CN(C)C(=O)c2ccc(NC(=O)C3CC3)cc2OC[C@@H](C)N(C(=O)c2ccccc2)C[C@@H]1C do in these assays?
Yeast UUG start: -1.1
